# scFv variants of Ab-14 (heavy chain) against a SARS-CoV-2 spike peptide

From the AlphaSeq antibody data of Li et al. 2023 (doi:10.1038/s41467-023-39022-2), copy in the FLAb collection.

Binding partner: SARS-CoV-2 spike HR2 peptide, sequence PDVDLGDISGINAS.

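This is the validation round: designs drawn from the data on random variants, tested in the same kind of assay. Several design methods are mixed in this list. Affinity was read by AlphaSeq, a pooled yeast mating assay with surface-displayed partners. Mating (16 h, 30 °C) was followed by selection of diploids and sequencing of their barcodes. Scores were corrected for input abundance and mapped to Kd with protein pairs of known affinity run in the same pool. The assay was run in six technical replicates.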

Each scFv is VH, the linker GGGGSGGGGSGGGGS, VL, as in the parent Ab-14, and differs from it in the CDRs of the heavy chain only.
VH: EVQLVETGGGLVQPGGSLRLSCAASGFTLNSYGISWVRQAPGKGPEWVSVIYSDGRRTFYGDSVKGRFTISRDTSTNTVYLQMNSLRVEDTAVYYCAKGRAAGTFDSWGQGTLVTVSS
VL: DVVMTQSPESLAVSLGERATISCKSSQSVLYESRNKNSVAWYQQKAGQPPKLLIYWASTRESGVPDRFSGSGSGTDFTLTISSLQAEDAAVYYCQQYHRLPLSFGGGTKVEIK

The parent's heavy chain CDRs are GFTLNSYGIS, VIYSDGRRTFYGDSVK, GRAAGTFDS; each variant's own CDRs replace them letter for letter. Numbers give log10(Kd / nM), so 0 is 1 nM and 3 is 1 µM. Smaller is tighter. Averages over replicates are reported, and they cover detected replicates only. "not detected" means that the variant was in the library but no mating with the target was seen in any replicate; the authors take this as a sign of poor binding, and no number exists. The parent sequence was in this pool as ten entries: three were never detected, three once, and four in most replicates, with averages from 0.34 to 2.37.

{"CDR-H1": "GFNLNSYGIS", "CDR-H2": "VIYSDGRRTEYGDAVK", "CDR-H3": "GRAAGTFDS", "mean log10 Kd (nM)": "1.00", "replicates with signal": "6/6"}
{"CDR-H1": "GKSIDEYGIS", "CDR-H2": "VIYADGLRTQYSNKVK", "CDR-H3": "GLEGFAFDQ", "mean log10 Kd (nM)": "1.66", "replicates with signal": "1/6"}
{"CDR-H1": "GFTLNSYGIS", "CDR-H2": "VIYSDGKRTFYGDSVK", "CDR-H3": "GQTAGTFDS", "mean log10 Kd (nM)": "0.80", "replicates with signal": "6/6"}
{"CDR-H1": "GEDLDEYGIS", "CDR-H2": "VIYADGRRVVYQDQVK", "CDR-H3": "GELSGSFAQ", "mean log10 Kd (nM)": "not detected", "replicates with signal": "0/6"}
{"CDR-H1": "GFGLSEYGIS", "CDR-H2": "VIYADGMRTSYSNSVK", "CDR-H3": "GALAGTFDE", "mean log10 Kd (nM)": "-0.84", "replicates with signal": "6/6"}
{"CDR-H1": "GFSLNEYGIS", "CDR-H2": "VIYSDGRRTFYGDSVK", "CDR-H3": "GEAAGTFDT", "mean log10 Kd (nM)": "0.28", "replicates with signal": "6/6"}
{"CDR-H1": "GFDLDEYGIS", "CDR-H2": "VIYADGQRTAYADSVK", "CDR-H3": "GNVAGTFDE", "mean log10 Kd (nM)": "-0.57", "replicates with signal": "6/6"}
{"CDR-H1": "GFELNSYGIS", "CDR-H2": "VIYSDGRRTFYGDDVK", "CDR-H3": "GVEAGTFDS", "mean log10 Kd (nM)": "0.80", "replicates with signal": "6/6"}
{"CDR-H1": "GFDLNSYGIS", "CDR-H2": "VIYSDGRRTFYQDKVK", "CDR-H3": "GRTAGTFDD", "mean log10 Kd (nM)": "0.46", "replicates with signal": "6/6"}
{"CDR-H1": "GFDLEKYGIH", "CDR-H2": "VIYADGIRTSYSDSVK", "CDR-H3": "GDLSGTFYV", "mean log10 Kd (nM)": "1.40", "replicates with signal": "3/6"}
{"CDR-H1": "GNTLDEYGIS", "CDR-H2": "VIYADGMRKAYINKFK", "CDR-H3": "GMMTGTFDQ", "mean log10 Kd (nM)": "not detected", "replicates with signal": "0/6"}
{"CDR-H1": "GFTLNSYGIS", "CDR-H2": "VIYSDGRRTFYSDSVK", "CDR-H3": "GQAAGIFDT", "mean log10 Kd (nM)": "not detected", "replicates with signal": "0/6"}
{"CDR-H1": "GFTLNSYGIS", "CDR-H2": "VIYSDGRRTFYNDSTK", "CDR-H3": "GRAAGTFDS", "mean log10 Kd (nM)": "not detected", "replicates with signal": "0/6"}
{"CDR-H1": "GFDVMEYGIS", "CDR-H2": "VIYADGMRQAYTNKVK", "CDR-H3": "GGNTSSGLI", "mean log10 Kd (nM)": "not detected", "replicates with signal": "0/6"}
{"CDR-H1": "GFDLNEYGIS", "CDR-H2": "VIYADGVRTAYSDSVK", "CDR-H3": "GANAGTFDV", "mean log10 Kd (nM)": "-0.09", "replicates with signal": "6/6"}
{"CDR-H1": "GFTLNSYGIS", "CDR-H2": "VIYSDGRRTFYGDSVK", "CDR-H3": "GKNAGTFDS", "mean log10 Kd (nM)": "1.56", "replicates with signal": "9/12"}
{"CDR-H1": "GFTLNSYGIS", "CDR-H2": "VIYSDGERTFYGDSVK", "CDR-H3": "GRATGTFDT", "mean log10 Kd (nM)": "not detected", "replicates with signal": "0/6"}
{"CDR-H1": "GFTLNQYGIS", "CDR-H2": "VIYSDGRRTPYSDSVK", "CDR-H3": "GRAAGFQDS", "mean log10 Kd (nM)": "not detected", "replicates with signal": "0/6"}
{"CDR-H1": "GADLNEYGIS", "CDR-H2": "VIYADGDRKAYQDDFK", "CDR-H3": "GDVGGDFDE", "mean log10 Kd (nM)": "not detected", "replicates with signal": "0/6"}
{"CDR-H1": "GFDLNEYGIS", "CDR-H2": "VIYADGVRTAYSDSVK", "CDR-H3": "GGNAGTFDM", "mean log10 Kd (nM)": "-0.90", "replicates with signal": "6/6"}
{"CDR-H1": "GDTLNSYGIS", "CDR-H2": "VIYSDGRRTFYGDSVK", "CDR-H3": "GEAAGKFDS", "mean log10 Kd (nM)": "1.09", "replicates with signal": "2/6"}
{"CDR-H1": "GFTLNSYGIS", "CDR-H2": "VIYSDGRRTFYGDSVE", "CDR-H3": "GRAAGTFDT", "mean log10 Kd (nM)": "0.38", "replicates with signal": "1/6"}

The opening 2 entries, copied out:

CDR-H1,CDR-H2,CDR-H3,mean log10 Kd (nM),replicates with signal
GFNLNSYGIS,VIYSDGRRTEYGDAVK,GRAAGTFDS,1.00,6/6
GKSIDEYGIS,VIYADGLRTQYSNKVK,GLEGFAFDQ,1.66,1/6

Values of this round are not directly comparable with the first-round values of the same sequences. Three control strains display no target. For all heavy chain designs, 1% of the pairings with them gave a signal, with a median of 2.08 and one signal in twenty below 0.84, so weak values seen in few replicates may be background. The authors averaged sequences with at least three values out of six and counted those with two or fewer as poor binders. A sequence that the file lists under several names has all its replicates pooled.